Patent EP1079826B1, “USE OF INDIGOID BISINDOLE DERIVATIVES FOR THE MANUFACTURE OF A MEDICAMENT TO INHIBIT CYCLIN DEPENDENT KINASES” (CNRS, Centre National de la Recherche Scientifique, priority 1998, dated 1999)

By UniProt entry, the sequences of proteins in these tests, tags left out.
UniProt P11802, whole entry, species assumed: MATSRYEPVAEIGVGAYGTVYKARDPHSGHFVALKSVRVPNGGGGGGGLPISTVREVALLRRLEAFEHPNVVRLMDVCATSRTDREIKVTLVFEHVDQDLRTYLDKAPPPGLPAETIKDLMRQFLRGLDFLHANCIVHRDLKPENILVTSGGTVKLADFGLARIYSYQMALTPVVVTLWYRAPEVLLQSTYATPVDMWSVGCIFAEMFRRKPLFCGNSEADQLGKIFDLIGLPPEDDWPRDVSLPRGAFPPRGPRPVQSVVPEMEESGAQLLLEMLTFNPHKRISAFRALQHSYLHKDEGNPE

Biological target: CDK4/ cyclin D1 (Homo sapiens, UniProt P11802)
Experiment: kinase inhibition selectivity, CDK4/cyclin D1
Format: biochemical
Details: calculated from dose response curves, Table 4

IC50: 300 nM
SMILES: O=C1Nc2ccc(S(=O)(=O)O)cc2C1=C1Nc2ccccc2C1=O [Example 11, Indirubine-5-sulfonic acid]
